Values quoted from earlier work as cited in patent US20230203096A1, “EPHA4 TARGETING COMPOUNDS AND METHODS OF USE THEREOF” (priority 2020, published 2023).

The chains behind the UniProt entries cited, without tags or fusion partners. Residues count along the entry.
UniProt P54764, 30-209 limits assumed, species assumed: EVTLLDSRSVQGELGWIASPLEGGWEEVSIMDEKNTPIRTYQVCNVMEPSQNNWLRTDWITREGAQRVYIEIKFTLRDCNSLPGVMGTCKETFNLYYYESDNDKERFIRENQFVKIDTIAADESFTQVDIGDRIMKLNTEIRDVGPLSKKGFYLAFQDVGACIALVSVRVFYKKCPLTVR

Biological target: T1, EphA4-LBD (Homo sapiens, UniProt P54764)
T1 construct: first synthetic agonistic ligand with a dissociation constant for EphA4-LBD of ˜ 400 nM
Conditions: reported previously; read-out: dissociation constant for EphA4-LBD; cited from earlier work

Compound: COc1ccc2[nH]cc(CCNC(=O)[C@H](Cc3ccncc3)NC(=O)[C@H](Cc3ccc(Cl)cc3)NC(=O)[C@H](Cc3c[nH]c4ccc(O)cc34)NC(=O)CCCN)c2c1 [Compound 123C4, reference compound]
- Kd: ~400 nM
